Measured values from patent publication US12492224B2, “Bicyclic peptide ligands specific for PD-L1” (BicycleTx Limited, priority 2018, dated 2025).

The chains behind the UniProt entries cited, without tags or fusion partners. Residues count along the entry.
UniProt Q9NZQ7, 19-290: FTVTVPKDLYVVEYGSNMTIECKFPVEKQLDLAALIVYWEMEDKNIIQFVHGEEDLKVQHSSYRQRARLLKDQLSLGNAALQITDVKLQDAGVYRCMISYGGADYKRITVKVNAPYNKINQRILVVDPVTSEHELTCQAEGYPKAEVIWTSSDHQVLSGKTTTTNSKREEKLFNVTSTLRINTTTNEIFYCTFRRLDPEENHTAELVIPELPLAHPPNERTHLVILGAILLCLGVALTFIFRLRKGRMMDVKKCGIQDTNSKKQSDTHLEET

What follows are substances tested against T1, human PD-L1 (Homo sapiens, UniProt Q9NZQ7) (assay: PD-L1 SPR Binding Assay (Biacore), human). Details: 25° C.
T1 construct: purchased Sino Biologicals or R&D systems
Description: The protein was desalted to remove uncoupled biotin using spin columns into PBS. For analysis of binding, a Biacore 3000 instrument was used utilizing a CM5 sensor chip (GE Healthcare). Streptavidin was immobilized on the chip using standard amine-coupling chemistry at 25° C. with HBS-N (10 mM HEPES, 0.15 M NaCl, pH 7.4) as the running buffer. The carboxymethyl dextran surface was activated with a 12 min injection of a 1:1 ratio of 0.4 M 1-ethyl-3-(3-dimethylaminopropyl) carbodiimide hydrochloride (EDC)/0.1 M N-hydroxy succinimide (NHS) at a flow rate of 10 μl/min. For capture of streptavidin, protein was diluted to 0.1 mg/ml in 10 mM sodium acetate (pH 4.5) and captured by injecting 70 μl onto the activated chip surface. Residual activated groups were blocked with a 7 min injection of 1 M ethanolamine (pH 8.5). Biotinylated PD-L1 stock was diluted 1:100 in HBS-N and captured on one flow cell at 5 μl/min to a level of 1000-1300 RU. Buffer was changed to PBS/0.05% Tween 20 and a dilution series of the peptides was prepared in this buffer with a final DMSO concentration of 0.5%. The top concentrations were 200 nM or 500 nM with 6 2-fold dilutions. The SPR analysis was run at 25° C. at a flow rate of Flow rate 50 μl/min with 60 seconds association and 400 seconds disassociation. Data were corrected for DMSO excluded volume effects. All data were double-referenced for blank injections and reference surface using standard processing procedures and data processing and kinetic fitting were performed using Scrubber software, version 2.0c (Biologic Software). Data were fitted using mass transport model allowing for mass transport effects where appropriate.

| Substance | Kd |
| --- | --- |
| [Ac]EKCS[Aad]GWLTMCQKLHLC [BCY11821] | 17.5 nM |
| [Ac]SDK-(SEQ ID NO: 42)-P-COOH [BCY10937] | 5.03 nM |
| Ac-ACSAGWLTMCQKLHLCPSH [BCY11833] | 32.5 nM |
| [Ac]KCS[Aad]GWLTMCQKLHLC [BCY11819] | 27.3 nM |
| SDKCSAGWLTMCQKLHLCA [BCY3835] | 30.1 nM |
| [Ac]CSAGWLTMCKQLNLCPSH [BCY10942] | 24.1 nM |
| [Ac]SDKCSAGWLTMCQKLH[Cpa]C [BCY10956] | 24.9 nM |
| SDKCSAGWLT[HPhe]CQKLHLCA [BCY10064] | 20.5 nM |
| SD[HSer]CSAGWLTMCQKLHLCA [BCY10053] | 47.5 nM |
| SDKCS[HSer]GWLTMCQKLHLCA [BCY10061] | 33.7 nM |
| [Ac]SDKCSAGWLTMCQRLHLC [BCY10078] | 12.2 nM |
| SDKCSA[HSer]WLTMCQKLHLCA [BCY10057] | 31.8 nM |
| [Ac]SDKCSAGWLTMCQKLHLCPSH [BCY10943] | 7.76 nM |
| [Ac]SDKC[AlloThr]AGWLTMCQKLHLC [BCY10952] | 108 nM |
| [Ac]DKCS[Aad]GWLTMCLKLHLC [BCY11823] | 17.7 nM |
| [Ac]SDK-(SEQ ID NO: 51) [BCY10954] | 19.4 nM |
| SDKCS[dA]GWLTMCQKLHLCA [BCY10060] | 229 nM |
| [Ac]SDKCSAEWLTMCQKLHLC [BCY10947] | 31.1 nM |
| [Ac]SDKCSAGWLTMCEKLHLC [BCY10949] | 18.7 nM |
| Ac-SDKCSAGWLTMCLKLHLCPSH [BCY11830] | 24.1 nM |
| Ac-SDKCSAGWLTMCQKLHLC [BCY11832] | 68.4 nM |
| [Ac]SDKCSAGWLTMC[Cpa]KLHLC [BCY10950] | 8.73 nM |
| [Ac]DKCS[Aad]GWLTMCQKLHLC [BCY11818] | 30.1 nM |

| Substance | Kd |
| --- | --- |
| [Ac]SDK-(SEQ ID NO: 42)-P [BCY10935] | 14.9 nM |
| [Ac]SDRCSAGWLTMCQKLHLC [BCY10076] | 14.5 nM |
| [Ac]SDKCS[Aad]GWLTMCQKLHLC [BCY10961] | 7.42 nM |
| [Ac]SEKCSAGWLTMCQKLHLC [BCY10951] | 7.28 nM |
| [Ac]DKCSAGWLTMCKQLNLCPSH [BCY10940] | 2.32 nM |
| [Ac]SD[HArg]CS[Aib]GWLT[hPhe]CLKL[Aib]LCPSH [BCY10944] | 10.7 nM |
| SDKCSAGWLTMCVQLGLCA [BCY10065] | 34.1 nM |
| [Ac]SDKCSAG[7-AzaW]LTMCQKLHLC [BCY10945] | 147 nM |
| [Ac]KCSAGWLTMCKQLNLCPSH [BCY10941] | 3.67 nM |
| [Ac]SDK-(SEQ ID NO: 42)-PS-COOH [BCY10936] | 13 nM |
| [Ac]SDKCSAGWLTMC[Aad]KLHLC [BCY10946] | 13.1 nM |
| SDKCSAGWLTMCQ[HSer]LHLCA [BCY10069] | 92 nM |
| Ac-SDKCS[Aad]GWL[3HyV]MCLKLHLC [BCY11829] | 43.6 nM |
| [Ac]SDK-(SEQ ID NO: 42)-PS [BCY10934] | 10.9 nM |
| [Ac]SDKCSAGWLTMCQKLHLCA [BCY10075] | 28.6 nM |
| SDKCSAGWLTMCLKLHLCA [BCY10067] | 5.51 nM |
| [Ac]SDKCSA[Aad]WLTMCQKLHLC [BCY10948] | 97.5 nM |
| [Ac]SDKCS[Aad]GWLTMCLKLHLC [BCY11822] | 16.5 nM |
| [Ac]SEKCS[Aad]GWLTMCQKLHLC [BCY11820] | 17.4 nM |
| SDKCSAGWLTMCQKL[dA]LCA [BCY10072] | 22.5 nM |
| [Ac]SDKCSAGWLTMCKQLNLC-COOH [BCY10938] | 12.2 nM |
| [Ac][dS]DKCSAGWLTMCQKLHLCA [BCY10051] | 20.7 nM |

Each substance was assayed against T1, human PD-L1 (assay: PD-L1 Direct Binding Assay (fluorescence polarisation), human). Details: Human Direct Binding Assay, fluorescence polarisation; read-out: Kd.
Description: Affinity of the peptides of the invention for human PD-L1 (Ki) was determined using a fluorescence polarisation assay, in accordance with the methods disclosed in WO2016/067035. Peptides of the invention with a fluorescent tag (either fluorescein, SIGMA or Alexa Fluor488™, Fisher Scientific) were diluted to 2.5 nM in PBS with 0.01% tween 20 or 50 mM HEPES with 100 mM NaCl and 0.01% tween pH 7.4 (both referred to as assay buffer). This was combined with a titration of protein in the same assay buffer as the peptide to give 1 nM peptide in a total volume of 25 μL in a black walled and bottomed low bind low volume 384 well plates, typically 5 μL assay buffer, 10 μL protein then 10 μL fluorescent peptide. One in two serial dilutions were used to give 12 different concentrations with top concentrations ranging from 500 nM for known high affinity binders to 10 μM for low affinity binders and selectivity assays. Measurements were conducted on a BMG PHERAstar FS equipped with an “FP 485 520 520” optic module which excites at 485 nm and detects parallel and perpendicular emission at 520 nm. The PHERAstar FS was set at 25° C. with 200 flashes per well and a positioning delay of 0.1 second, with each well measured at 5 to 10 minute intervals for 60 minutes. The gain used for analysis was determined for each tracer at the end of the 60 minutes where there was no protein in the well. Data was analysed using Systat Sigmaplot version 12.0. mP values were fit to a user defined quadratic equation to generate a Kd value: f=ymin+(ymax−ymin)/Lig*((x+Lig+Kd)/2−sqrt((((x+Lig+Kd)/2)^2)−(Lig*x))). “Lig” was a defined value of the concentration of tracer used.

| Substance | Kd |
| --- | --- |
| ACTPNWNAMCLKLNLCA [BCY523] | 362 nM |
| GNKCSPSWLTMCQKLHLCA[Sar]6[KFI] [BCY574] | 16.9 nM |
| [FI][B-Ala][Sar]5ACSPEWKNMCITLNLCA [BCY561] | 365 nM |
| ACDVFTHCILLAKPCA [BCY526] | 379 nM |
| [FI][B-Ala][Sar]5ACSESWSNMCVSLGLCA [BCY559] | 438 nM |
| APVCSPGWLTMCQKLHLCA[Sar]6[KFI] [BCY572] | 45.5 nM |
| ERVCSDSWKTMCQKLHLCA[Sar]6[KFI] [BCY575] | 134 nM |
| AERCSESWSTMCQKLHLCA[Sar]6[KFI] [BCY576] | 124 nM |
| [FI]G[Sar]5ACSSSWTNMCVQLGLCA [BCY3809] | 57.4 nM |
| [FI][B-Ala][Sar]5ACTPNWNAMCLKLNLCA [BCY555] | 748 nM |
| ADVCSPQWLTMCQKLHLCA[Sar]6[KFI] [BCY573] | 30.2 nM |
| VERCSDGWLTMCQKLHLCA[Sar]6[KFI] [BCY567] | 16.4 nM |
| [FI][B-Ala][Sar]5ACSTSWMNLCKQLNLCA [BCY553] | 495 nM |
| KELCSPSWRNMCQKLHLCA[Sar]6[KFI] [BCY579] | 58.6 nM |
| RENCSDEWLTMCQKLHLCA[Sar]6[KFI] [BCY568] | 79 nM |
| ACSSSWTNMCVQLGLCA[Sar]6[KFI] [BCY3810] | 32.9 nM |
| ACSWSWLTMCKQLNLCPSH[Sar]6[KFI] [BCY581] | 24.2 nM |

| Substance | Kd |
| --- | --- |
| [FI][B-Ala][Sar]5ACSWSWLTMCQKLHLCA [BCY552] | 121 nM |
| AQTCSPEWLTMCQKLHLCA[Sar]6[KFI] [BCY571] | 125 nM |
| REECSSSWLTMCQKLHLCA[Sar]6[KFI] [BCY3812] | 65.3 nM |
| [FI]G[Sar]5KELCSPSWRTMCQKLHLCA [BCY3811] | 54.9 nM |
| QAEKCSWSWLNMCQKLHLCA[Sar]6[KFI] [BCY8210] | 9.97 nM |
| SGKCSNSWLTMCQKLHLCA[Sar]6[KFI] [BCY577] | 51.5 nM |
| KPKCSPSWLTMCQKLHLCA[Sar]6[KFI] [BCY580] | 51 nM |
| QQECSNSWLTMCQKLHLCA[Sar]6[KFI] [BCY569] | 83.9 nM |
| FI-(B-Ala)-Sar5-ACSWSWLTMCQKLHLCA [73-07-00-N001] | 16.9 nM |
| SDKCSAGWLTMCQKLHLCA[Sar]6[KFI] [BCY566] | 12.6 nM |
| [FI][B-Ala][Sar]5ACSDQWMQMCSKLTCA [BCY562] | 935 nM |
| AGSCSPAWLTMCQKLHLCA[Sar]6[KFI] [BCY570] | 80.2 nM |
| KELCSPSWRTMCQKLHLCA[Sar]6[KFI] [BCY578] | 55.1 nM |
| [FI][B-Ala][Sar]5ACSAEWRNMCVELNLCA [BCY560] | 492 nM |
| ACSWSWLTMCQKLDLCDHEN[Sar]6[KFI] [BCY582] | 176 nM |
| [FI][B-Ala][Sar]5ACSESWRNMCVQLNLCA [BCY3808] | 43.6 nM |

Same assay, conditions: determined using the direct binding protocol; read-out: Kd of fluorescent competition tracer

| Substance | Kd |
| --- | --- |
| FI-G-Sar5-ACPDPHNICHLWCA [reference compound] | 68.8 nM |

What follows are substances tested against T1, human PD-L1 (assay: PD-L1 Competition Binding Assay (fluorescence polarisation)). Details: competition with FI-G-Sar5-ACPDPHNICHLWCA.
Description: Peptides were diluted to an appropriate concentration in assay buffer as described in the direct binding assay with a maximum of 5% DMSO, then serially diluted 1 in 2. Five μL of diluted peptide was added to the plate followed by 10 μL of human PD-L1, then 10 μL fluorescent peptide added. Measurements were conducted as for the direct binding assay, however the gain was determined prior to the first measurement. Data analysis was in Systat Sigmaplot version 12.0 where the mP values were fit to a user defined cubic equation to generate a Ki value:
f=ymin+(ymax−ymin)/Lig*((Lig*((2*((Klig+Kcomp+Lig+Comp−Prot*c)^2−3*(Kcomp*(Lig−Prot*c)+Klig*(Comp−Prot*c)+Klig*Kcomp))^0.5*COS(ARCCOS((−2*(Klig+Kcomp+Lig+Comp−Prot*c)^3+9*(Klig+Kcomp+Lig+Comp−Prot*c)*(Kcomp*(Lig−Prot*c)+Klig*(Comp−Prot*c)+Klig*Kcomp)−27*(−1*Klig*Kcomp*Prot*c))/(2*((((Klig+Kcomp+Lig+Comp−Prot*c)^2−3*(Kcomp*(Lig−Prot*c)+Klig*(Comp−Prot*c)+Klig*Kcomp))^3)^0.5)))/3))−(Klig+Kcomp+Lig+Comp−Prot*c)))/((3*Klig)+((2*((Klig+Kcomp+Lig+Comp−Prot*c)^2−3*(Kcomp*(Lig−Prot*c)+Klig*(Comp−Prot*c)+Klig*Kcomp))^0.5*COS(ARCCOS((−2*(Klig+Kcomp+Lig+Comp−Prot*c)^3+9*(Klig+Kcomp+Lig+Comp−Prot*c)*(Kcomp*(Lig−Prot*c)+Klig*(Comp−Prot*c)+Klig*Kcomp)−27*(−1*Klig*Kcomp*Prot*c))/(2*((((Klig+Kcomp+Lig+Comp−Prot*c)^2−3*(Kcomp*(Lig−Prot*c)+Klig*(Comp−Prot*c)+Klig*Kcomp))^3)^0.5)))/3))−(Klig+Kcomp+Lig+Comp−Prot*c)))). “Lig”, “KLig” and “Prot” were all defined values relating to: fluorescent peptide concentration, the Kd of the fluorescent peptide and PD-L1 concentration respectively.

| Substance | Ki |
| --- | --- |
| ACTPNWNAMCLKLNLCA [BCY523] | 362 nM |
| ACDVFTHCILLAKPCA [BCY526] | 379 ± 96.4 nM |
